“Also recorded” adds a separate entry of the source.
How the values were obtained:
CWR22rv1 tumors = assay: Tumor uptake of PSMA-617-Lu^177 in CWR22rv1 xenografts with cold antibody (Example 4); format: in vivo, BALB/c nude mice; conditions: combined injection day 0, sacrifice day 3
Procedure: CWR22rv1 cells (5×10^6 cells/200 μl matrigel/mouse) were injected into 40 BALB/c nude mice. After tumors were established and growing, all mice were injected intravenously (IV) via tail vein with PSMA-617-Lu^177 (300 μci/per mouse) on day 0. The treatment groups were as follows.
All mice were euthanized 3 days after injection of PSMA-617-Lu^177. All tumors were harvested, weighed individually, and radioactivity counted.

LNCaP tumors = assay: Early tumor uptake of PSMA I&T-Lu^177 in LNCaP tumors with unlabeled antibody (Example 5); format: in vivo, mice; conditions: 2 hours after IV injection, compared to no antibody
Procedure: The impact of J591 anti-PSMA antibody on PSMA ligand (PSMA I&T-Lu^177) internalization at an early time point (2 hours) in vivo was measured in vivo in an animal model. In this experiment, there were 3 groups of mice with 7 LNCaP tumors in each group. One group got PSMA I&T-Lu^177 injected IV alone; a 2nd group got PSMA I&T-Lu^177 co-injected with unlabeled Herceptin (anti-Her2) and the 3rd group got PSMA I&T-Lu^177 co-injected with unlabeled J591 (anti-PSMA). To determine the very short-term effect of the combination on tumor uptake of the radiolabeled PSMA I&T, the mice were sacrificed 2 hours after injection, their tumors harvested, weighed and PSMA I&T-Lu^177 radioactivity counted in a gamma counter to determine counts per mg of tumor. The group treated with anti-her2 was a negative control to rule out a non-specific effect of a non-PSMA antibody.

Herceptin: antibody targeting HER2, an antibody negative control
effect of co-administered cold antibody on tumor uptake of PSMA-617-Lu^177 (CWR22rv1 tumors): no impact; also recorded: no effect
effect of co-injected unlabeled antibody on tumor uptake of PSMA I&T-Lu^177 (LNCaP tumors): no effect
